The record followed here is US20220229068A1, “DETECTION OF PROTEIN TO PROTEIN INTERACTIONS” (THE GOVERNING COUNCIL OF THE UNIVERSITY OF TORONTO, priority 2019, published 2022).

Common to all, as to assay: SIMPL ELISA, bait-IN/prey-CIC
Experiment [1] deals with DDIT3 (prey, CIC format) (human) (UniProt P35638).
The target of experiment [2] is CKS1B (prey, CIC format) (human) (UniProt P61024).
Experiment [3] deals with S100B (prey, CIC format) (human) (UniProt P04271).
Experiment [4] has as its target RAN (prey, CIC format) (human) (UniProt P62826).
For experiment [5], the target named is ARFIP2 (prey, CIC format) (human) (UniProt P53365).
The target in experiment [6] is BTRC (prey, CIC format) (human) (UniProt Q9Y297).

Regarding “CDK2 (bait, IN format) (from UniProt P24941 1-298)”, the PLU mean in experiment [1] was 0.275; in experiment [2], 1.88.

“S100A6 (bait, IN format) (from UniProt P06703 1-90)”: the values for the PLU mean in experiment [3] and in experiment [4] were 0.217 and 0.105, respectively.

Turning to “RAC1 (bait, IN format) (from UniProt P63000 1-192)”, the figures for the PLU mean in experiment [5] and in experiment [6] were 0.672 and 0.256, respectively.
